Assay results: publication PMC9037210, “Novel 3-(6-methylpyridin-2-yl)coumarin-based chalcones as selective inhibitors of cancer-related carbonic anhydrases IX and XII endowed with anti-proliferative activity” (Journal of Enzyme Inhibition and Medicinal Chemistry, 2022)

Assays:
[1] = target: T1, hCA IX (Homo sapiens, UniProt Q16790); assay: stopped-flow CO2 hydrase assay, hCA IX; format: biochemical
T1 construct: made in house
Procedure: (§1) The newly synthesised MPCs (3 and 5a–o) were assessed for their CA inhibition activity employing the stopped-flow CO2 hydrase assay[29] for constitutional hCA (I/II) isoforms and cancer-linked hCA (IX/XII) isoforms.
(§2) The CA inhibition activity for the herein reported MPC derivatives was evaluated against the hCA isoforms I, II, IX, and XII using stopped-flow CO2 hydrase test[7]^,[33–36] (see the Supplementary Material).
(§3) Carbonic anhydrase inhibition assay
(§4) The carbonic anhydrase catalyzed CO2 hydration actions for all coumarin-based […]
(§5) Photophysics stopped-flow. The enzymes are recombinant proteins prepared in our lab. Phenol red (at a concentration of 0.2 mM) has been used as indicator, working at […]
(§6) mM Na2SO4 (for maintaining constant the ionic strength), following the initial rates of the CA-catalyzed CO2 hydration reaction for a period of 10-100 s. The CO2 concentrations ranged from 1.7 to 17 mM for the determination of the kinetic parameters and inhibition constants. For each inhibitor at least six traces of the initial 5-10% of the reaction have been used for determining the initial velocity. The uncatalyzed rates were determined in the same manner and subtracted from the total observed rates. Stock solutions of inhibitor (0.1 mM) were prepared in distilled-deionized water and dilutions up to 0.01 nM were done thereafter with the assay buffer. […]

[2] = target: T2, hCA XII (Homo sapiens, UniProt O43570); assay: stopped-flow CO2 hydrase assay, hCA XII; format: biochemical; conditions: ratio of KI for hCA I and II relative to hCA XII
T2 construct: made in house
Procedure: as §1, §2, §3, §4, §5, §6

Cc1nc(-c2cc3ccccc3oc2=O)ccc1C(=O)/C=C/c1cccs1 [Compound 5m, 3-(6-Methyl-5-[(2E)-3-(thiophen-2-yl)prop-2-enoyl]pyridin-2-yl)-2H-chromen-2-one]
Selectivity index (SI) (KI off-target CA/KI target CA) Towards hCA IX [1]: >90.91
Selectivity index (SI) (KI off-target CA/KI target CA) Towards hCA XII [2]: >37.04
